Values quoted from earlier work, collected in patent publication US20220298038A1, “A METHOD FOR DISRUPTING BIOFILMS IN WASTEWATER SYSTEMS” (GRENOF PTY LTD, priority 2019, published 2022).

What was measured:
[1] = cited from earlier work
[2] = standard oxidation potential (at pH 7); cited from earlier work
[3] = discrete compounds (Yu Ran Luo); cited from earlier work

Row | Molecule | Oxidation Potential [2] [eV] | other results
1 | O=C(OO)c1ccccc1 | – | solubility in cold water [1]: slightly soluble
2 | Hydroxy Radical | 2.8 | –
3 | Potassium Permanganate | 1.68 | –
4 | dimethyl peroxide | – | O—O Bond Dissociation Energy [3]: 37.6 ± 2.01 kcal/mol
